We go through 1 compound from PubChem BioAssay AID2283317 (EPA ToxCast).

The subject of this experiment is NCBI gene 257648. Put plainly: NVS_IC_rCaChN: NovaScreen (NVS) Ion Channel Assay for human Calcium Channel, Type N (CaChN).

SMILES strings stand for the structures. The entries are a selection whose mix differs from that of the whole data set. Records with an inconclusive call do not appear. The source made the active and inactive calls. The calls were made as follows: active = hit-call score of the fitted dose curve at least 0.9, where 1 is the maximum; inconclusive = response in the unintended direction; inactive = score below 0.9.

In the case of `O=[N+]([O-])c1cccc([N+](=O)[O-])c1`, the outcome was inactive.
